Data from US9447092B2, “Pharmaceutically active compounds” (CANCER RESEARCH TECHNOLOGY LIMITED, priority 2012, dated 2016).

By UniProt entry, the sequences of proteins in these tests, tags left out.
UniProt P10635, whole entry: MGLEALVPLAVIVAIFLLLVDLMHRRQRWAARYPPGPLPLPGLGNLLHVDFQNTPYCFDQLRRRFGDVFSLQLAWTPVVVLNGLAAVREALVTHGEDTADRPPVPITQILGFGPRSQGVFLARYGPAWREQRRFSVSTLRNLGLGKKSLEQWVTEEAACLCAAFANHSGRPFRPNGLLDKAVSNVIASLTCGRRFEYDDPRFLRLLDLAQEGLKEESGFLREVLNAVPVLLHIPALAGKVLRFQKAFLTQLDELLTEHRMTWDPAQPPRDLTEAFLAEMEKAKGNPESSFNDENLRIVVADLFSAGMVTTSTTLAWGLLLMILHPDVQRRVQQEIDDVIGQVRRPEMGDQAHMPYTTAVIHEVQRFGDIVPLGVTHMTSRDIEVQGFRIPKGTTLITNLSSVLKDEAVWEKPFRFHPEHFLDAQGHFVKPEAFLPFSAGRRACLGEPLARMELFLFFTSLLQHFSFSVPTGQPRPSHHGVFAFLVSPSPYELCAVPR
UniProt P11712, whole entry: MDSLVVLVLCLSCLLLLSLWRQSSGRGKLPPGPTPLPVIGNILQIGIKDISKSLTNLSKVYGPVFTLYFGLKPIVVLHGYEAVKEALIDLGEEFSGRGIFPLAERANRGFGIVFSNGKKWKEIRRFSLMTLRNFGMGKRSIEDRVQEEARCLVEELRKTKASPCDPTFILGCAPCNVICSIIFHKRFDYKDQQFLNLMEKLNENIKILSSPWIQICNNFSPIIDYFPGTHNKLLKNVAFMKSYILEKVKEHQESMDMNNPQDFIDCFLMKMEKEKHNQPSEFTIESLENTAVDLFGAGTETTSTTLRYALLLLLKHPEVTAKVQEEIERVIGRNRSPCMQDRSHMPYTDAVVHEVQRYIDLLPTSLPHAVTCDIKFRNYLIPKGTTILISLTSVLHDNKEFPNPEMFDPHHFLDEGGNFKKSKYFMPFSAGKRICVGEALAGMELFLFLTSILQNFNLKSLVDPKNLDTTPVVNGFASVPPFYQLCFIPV

How the values were obtained:
CYP2D6 = CYP2D6 (Homo sapiens (Human), UniProt P10635); experiment: Inhibition of CYP isozymes in human liver microsomes, CYP2D6
CYP2C9 = CYP2C9 (Homo sapiens (Human), UniProt P11712); experiment: Inhibition of CYP isozymes in human liver microsomes, CYP2C9

SMILES	IC50 (CYP2D6) [µM]	IC50 (CYP2C9) [µM]
Cc1nc(CN2CCN(c3c(Cl)cnc4[nH]c(-c5cn(C)nc5C)nc34)CC2)no1 [Example 3, 3-((4-(6-Chloro-2-(1,3-dimethyl-1H-pyrazol-4-yl)-3H-imidazo[4,5-b]pyridin-7-yl)piperazin-1-yl)methyl)-5-methyl-1,2,4-oxadiazole]	10 to 50	–
Cc1nn(C)cc1-c1nc2c(N3CCN(Cc4ccc(Cl)cc4)CC3)c(Cl)cnc2[nH]1 [Example 1, 6-Chloro-7-(4-(4-chlorobenzyl)piperazin-1-yl)-2-(1,3-dimethyl-1H-pyrazol-4-yl)-3H-imidazo[4,5-b]pyridine]	–	10 to 50
